Measured values taken from patent US20140100156A1 (SANOFI, priority 2012, published 2014).
Where two headings read alike, the source gives them in different places.

Protein sequences, listed by entry. Tags and fused reporters are not part of them. Residues count along the entry.
UniProt P47871, 26-477: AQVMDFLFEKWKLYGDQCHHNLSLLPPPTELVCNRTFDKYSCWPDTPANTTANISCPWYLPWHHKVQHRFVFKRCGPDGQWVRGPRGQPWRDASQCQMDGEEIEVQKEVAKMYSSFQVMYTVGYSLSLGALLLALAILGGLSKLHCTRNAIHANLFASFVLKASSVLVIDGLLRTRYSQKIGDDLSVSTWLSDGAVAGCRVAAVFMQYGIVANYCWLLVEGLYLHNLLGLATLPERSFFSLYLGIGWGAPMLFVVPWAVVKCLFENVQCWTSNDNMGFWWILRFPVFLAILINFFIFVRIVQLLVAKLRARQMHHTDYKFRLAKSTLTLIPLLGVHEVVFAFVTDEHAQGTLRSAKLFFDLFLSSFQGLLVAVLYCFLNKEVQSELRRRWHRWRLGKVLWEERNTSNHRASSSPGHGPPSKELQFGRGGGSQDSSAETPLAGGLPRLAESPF
UniProt P43220, 24-463: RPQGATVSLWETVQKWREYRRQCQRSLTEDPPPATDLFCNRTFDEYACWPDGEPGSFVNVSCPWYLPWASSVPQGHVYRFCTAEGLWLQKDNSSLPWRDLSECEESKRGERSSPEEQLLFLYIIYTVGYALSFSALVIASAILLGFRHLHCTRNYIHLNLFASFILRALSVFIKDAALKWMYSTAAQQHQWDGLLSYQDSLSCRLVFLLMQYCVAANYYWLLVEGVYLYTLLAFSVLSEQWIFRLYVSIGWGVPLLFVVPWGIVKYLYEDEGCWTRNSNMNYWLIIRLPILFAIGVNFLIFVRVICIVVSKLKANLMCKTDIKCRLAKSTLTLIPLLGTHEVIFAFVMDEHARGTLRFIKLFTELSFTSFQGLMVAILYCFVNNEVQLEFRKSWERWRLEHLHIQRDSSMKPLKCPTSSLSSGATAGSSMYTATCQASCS

Key:
human glucagon receptor = target: T1, human glucagon receptor (Homo sapiens, UniProt P47871); test: cAMP response (HTRF) of HEK-293 cells stably expressing human glucagon receptor; format: cell-based; details: read-out: EC50 hGlucagon-R
T1 construct: expressed in transfected cells; host or cells: HEK-293

human GLP-1 receptor = target: T2, human GLP-1 receptor (Homo sapiens, UniProt P43220); test: cAMP response (HTRF) of HEK-293 cells stably expressing human GLP-1 receptor; format: cell-based; details: Table 5; cAMP, HEK-293; read-out: EC50 hGLP-1R
T2 construct: expressed in transfected cells; host or cells: HEK-293

SMILES	EC50 (human glucagon receptor; Table 5, cAMP, HEK-293) [pM]	EC50 (human glucagon receptor; Table 8, comparison testing of position 14) [pM]	EC50 (human GLP-1 receptor) [pM]
CCCCCCCCCCCCCCCC(=O)N[C@@H](CCC(=O)NCCCC[C@H](NC(=O)[C@H](CCC(N)=O)NC(=O)[C@H](CCCCN)NC(=O)[C@H](CO)NC(=O)[C@H](CC(C)C)NC(=O)[C@H](CC(=O)O)NC(=O)[C@H](CO)NC(=O)[C@@H](NC(=O)[C@H](Cc1ccccc1)NC(=O)[C@@H](NC(=O)CNC(=O)[C@H](CCC(N)=O)NC(=O)[C@@H](CO)NC(=O)[C@@H](N)Cc1c[nH]cn1)[C@@H](C)O)[C@@H](C)O)C(=O)N[C@@H](CC(=O)O)C(=O)N[C@@H](CO)C(=O)N[C@@H](CCCCN)C(=O)N[C@@H](C)C(=O)N[C@@H](C)C(=O)N[C@@H](CCC(N)=O)C(=O)N[C@@H](CC(=O)O)C(=O)N[C@@H](Cc1ccccc1)C(=O)N[C@H](C(=O)N[C@@H](CCC(=O)O)C(=O)N[C@@H](Cc1c[nH]c2ccccc12)C(=O)N[C@@H](CC(C)C)C(=O)N[C@@H](CCCCN)C(=O)N[C@@H](C)C(=O)NCC(=O)NCC(=O)N1CCC[C@H]1C(=O)N[C@@H](CO)C(=O)N[C@@H](CO)C(=O)NCC(=O)N[C@@H](C)C(=O)N1CCC[C@H]1C(=O)N1CCC[C@H]1C(=O)N1CCC[C@H]1C(=O)N[C@@H](CO)C(N)=O)[C@@H](C)CC)C(=O)O [compound 30]	7	7	3.2
CCCCCCCCCCCCCCCC(=O)N[C@@H](CCC(=O)NCCCC[C@H](NC(=O)[C@H](CCC(N)=O)NC(=O)[C@H](CCCCN)NC(=O)[C@H](CO)NC(=O)[C@H](CC(C)C)NC(=O)[C@H](CC(=O)O)NC(=O)[C@H](CO)NC(=O)[C@@H](NC(=O)[C@H](Cc1ccccc1)NC(=O)[C@@H](NC(=O)CNC(=O)[C@H](CCC(N)=O)NC(=O)C(C)(C)NC(=O)[C@@H](N)Cc1c[nH]cn1)[C@@H](C)O)[C@@H](C)O)C(=O)N[C@@H](CC(=O)O)C(=O)N[C@@H](CO)C(=O)N[C@@H](CCCCN)C(=O)N[C@@H](C)C(=O)N[C@@H](C)C(=O)N[C@@H](CCC(N)=O)C(=O)N[C@@H](CC(=O)O)C(=O)N[C@@H](Cc1ccccc1)C(=O)N[C@H](C(=O)N[C@@H](CCC(=O)O)C(=O)N[C@@H](Cc1c[nH]c2ccccc12)C(=O)N[C@@H](CC(C)C)C(=O)N[C@@H](CCCCN)C(=O)N[C@@H](C)C(=O)NCC(=O)NCC(=O)N1CCC[C@H]1C(=O)N[C@@H](CO)C(=O)N[C@@H](CO)C(=O)NCC(=O)N[C@@H](C)C(=O)N1CCC[C@H]1C(=O)N1CCC[C@H]1C(=O)N1CCC[C@H]1C(=O)N[C@@H](CO)C(N)=O)[C@@H](C)CC)C(=O)O [compound 31]	9.3		1.7
CCCCCCCCCCCCCCCC(=O)NCCCC[C@H](NC(=O)[C@H](CCC(N)=O)NC(=O)[C@H](CCCCN)NC(=O)[C@H](CO)NC(=O)[C@H](CC(C)C)NC(=O)[C@H](CC(=O)O)NC(=O)[C@H](CO)NC(=O)[C@@H](NC(=O)[C@H](Cc1ccccc1)NC(=O)[C@@H](NC(=O)CNC(=O)[C@H](CCC(N)=O)NC(=O)[C@@H](CO)NC(=O)[C@@H](N)Cc1c[nH]cn1)[C@@H](C)O)[C@@H](C)O)C(=O)N[C@@H](CCC(=O)O)C(=O)N[C@@H](CO)C(=O)N[C@@H](CCCCN)C(=O)N[C@@H](C)C(=O)N[C@@H](C)C(=O)N[C@@H](CCC(N)=O)C(=O)N[C@@H](CC(=O)O)C(=O)N[C@@H](Cc1ccccc1)C(=O)N[C@H](C(=O)N[C@@H](CCC(=O)O)C(=O)N[C@@H](Cc1c[nH]c2ccccc12)C(=O)N[C@@H](CC(C)C)C(=O)N[C@@H](CCCCN)C(=O)N[C@@H](C)C(=O)NCC(=O)NCC(=O)N1CCC[C@H]1C(=O)N[C@@H](CO)C(=O)N[C@@H](CO)C(=O)NCC(=O)N[C@@H](C)C(=O)N1CCC[C@H]1C(=O)N1CCC[C@H]1C(=O)N1CCC[C@H]1C(=O)N[C@@H](CO)C(N)=O)[C@@H](C)CC [compound 32]	188		10.2
CCCCCCCCCCCCCCCC(=O)NCCCC[C@H](NC(=O)[C@H](CCC(N)=O)NC(=O)[C@H](CCCCN)NC(=O)[C@H](CO)NC(=O)[C@H](CC(C)C)NC(=O)[C@H](CC(=O)O)NC(=O)[C@H](CO)NC(=O)[C@@H](NC(=O)[C@H](Cc1ccccc1)NC(=O)[C@@H](NC(=O)CNC(=O)[C@H](CCC(N)=O)NC(=O)C(C)(C)NC(=O)[C@@H](N)Cc1c[nH]cn1)[C@@H](C)O)[C@@H](C)O)C(=O)N[C@@H](CCC(=O)O)C(=O)N[C@@H](CO)C(=O)N[C@@H](CCCCN)C(=O)N[C@@H](C)C(=O)N[C@@H](C)C(=O)N[C@@H](CCC(N)=O)C(=O)N[C@@H](CC(=O)O)C(=O)N[C@@H](Cc1ccccc1)C(=O)N[C@H](C(=O)N[C@@H](CCC(=O)O)C(=O)N[C@@H](Cc1c[nH]c2ccccc12)C(=O)N[C@@H](CC(C)C)C(=O)N[C@@H](CCCCN)C(=O)N[C@@H](C)C(=O)NCC(=O)NCC(=O)N1CCC[C@H]1C(=O)N[C@@H](CO)C(=O)N[C@@H](CO)C(=O)NCC(=O)N[C@@H](C)C(=O)N1CCC[C@H]1C(=O)N1CCC[C@H]1C(=O)N1CCC[C@H]1C(=O)N[C@@H](CO)C(N)=O)[C@@H](C)CC [compound 33]	473		11.2
CCCCCCCCCCCCCCCC(=O)N[C@@H](CCC(=O)NCCCC[C@H](NC(=O)[C@H](CCC(N)=O)NC(=O)[C@H](CCCCN)NC(=O)[C@H](CO)NC(=O)[C@H](CC(C)C)NC(=O)[C@H](CC(=O)O)NC(=O)[C@H](CO)NC(=O)[C@@H](NC(=O)[C@H](Cc1ccccc1)NC(=O)[C@@H](NC(=O)CNC(=O)[C@H](CCC(N)=O)NC(=O)[C@@H](CO)NC(=O)[C@@H](N)Cc1c[nH]cn1)[C@@H](C)O)[C@@H](C)O)C(=O)N[C@@H](CC(=O)O)C(=O)N[C@@H](CCC(=O)O)C(=O)N[C@@H](CCC(N)=O)C(=O)N[C@@H](C)C(=O)N[C@@H](C)C(=O)N[C@@H](CCC(N)=O)C(=O)N[C@@H](CC(=O)O)C(=O)N[C@@H](Cc1ccccc1)C(=O)N[C@H](C(=O)N[C@@H](CCC(=O)O)C(=O)N[C@@H](Cc1c[nH]c2ccccc12)C(=O)N[C@@H](CC(C)C)C(=O)N[C@@H](CCCCN)C(=O)N[C@@H](C)C(=O)NCC(=O)NCC(=O)N1CCC[C@H]1C(=O)N[C@@H](CO)C(=O)N[C@@H](CO)C(=O)NCC(=O)N[C@@H](C)C(=O)N1CCC[C@H]1C(=O)N1CCC[C@H]1C(=O)N1CCC[C@H]1C(=O)N[C@@H](CO)C(N)=O)[C@@H](C)CC)C(=O)O [compound 34]	6.7		1.5
CCCCCCCCCCCCCCCC(=O)N[C@@H](CCC(=O)NCCCC[C@H](NC(=O)[C@H](CCC(N)=O)NC(=O)[C@H](CCCCN)NC(=O)[C@H](CO)NC(=O)[C@H](CC(C)C)NC(=O)[C@H](CC(=O)O)NC(=O)[C@H](CO)NC(=O)[C@@H](NC(=O)[C@H](Cc1ccccc1)NC(=O)[C@@H](NC(=O)CNC(=O)[C@H](CCC(N)=O)NC(=O)[C@@H](CO)NC(=O)[C@@H](N)Cc1c[nH]cn1)[C@@H](C)O)[C@@H](C)O)C(=O)N[C@@H](CCC(=O)O)C(=O)N[C@@H](CO)C(=O)N[C@@H](CCC(N)=O)C(=O)N[C@@H](C)C(=O)N[C@@H](C)C(=O)N[C@@H](CCC(N)=O)C(=O)N[C@@H](CCC(=O)O)C(=O)N[C@@H](Cc1ccccc1)C(=O)N[C@H](C(=O)N[C@@H](CCC(=O)O)C(=O)N[C@@H](Cc1c[nH]c2ccccc12)C(=O)N[C@@H](CC(C)C)C(=O)N[C@@H](CCCCN)C(=O)N[C@@H](C)C(=O)NCC(=O)NCC(=O)N1CCC[C@H]1C(=O)N[C@@H](CO)C(=O)N[C@@H](CO)C(=O)NCC(=O)N[C@@H](C)C(=O)N1CCC[C@H]1C(=O)N1CCC[C@H]1C(=O)N1CCC[C@H]1C(=O)N[C@@H](CO)C(N)=O)[C@@H](C)CC)C(=O)O [compound 37]	12.9		1.5
